IL-2 act = activators of IL-2. IL-2 activation reporter assay, cell-based qHTS; stimulated with anti-CD3/CD4/CD28 beads; in transgenic mouse T cells. activation, % (series mostly up to about 46 µM). actives 0.065% (n = 360,000). AID 652025; in the data active means activation above about 50%; inconclusive means mostly about 30% to 49%
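EGFP and DsRed fluorescence is measured by plate cytometry in unstimulated transgenic mouse T cells exposed to compound for 60 minutes, then stimulated 18 hours at 37 degrees C with anti-CD3/anti-CD4 beads plus anti-CD28.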
Nrf2 ARE act = Nrf2 pathway activation; actives 0.31% (n = 410,000); Potency, µM (doses to about 46.1 µM), most hits filed as activators; AREc32 ARE-luciferase reporter (MCF7-derived line), luminescence, 24 h; AID 624171; further: nearly all actives have a fitted effect of over 65% in size
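Cells of the AREc32 ARE-luciferase line are plated in OPTI-MEM containing 5% FBS and left overnight at 37 deg C. Compounds are pinned in, incubation continues 24 hr, and firefly luciferase signal is then measured.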
ClpP mod = qHTS Assay for Activators of ClpP; ATP-dependent Clp protease proteolytic subunit (Bacillus subtilis (strain 168)), P80244; purified B. subtilis ClpP, FRET peptide cleavage, 20 min; Potency, µM (titrated, usually from 57.5 µM); actives 1.9% (n = 340,000); AID 651965, 2013; active means well fitted falling curve with a large enough effect; inconclusive means small, poorly fitted or top-dose-only effect; inactive means no such curve, though single readings can be large or run the other way; further: the source files actives as falling curves though it sought activators and does not explain the sign; nearly all actives have a fitted effect of over 65% in size
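Purified B. subtilis ClpP, 10 microg/mL final in Tris/HCl pH8 with KCl, BSA, glycerol and Tween-20, cleaved an Abz/nitrotyrosine-quenched decapeptide. Fluorescence (ex 320, em 430) was read at 0 and 20 min at room temperature. Delta was normalized to 5.8 microM ADEP and DMSO/no-enzyme controls.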
A549 viability = counter-screen for Nrf2 inhibitors: cytotoxicity in A549 cells; A549 ARE-Fluc cells, CellTiter-Fluor viability, 18-24 h; Potency, µM (doses to about 46 µM), usual class: inhibitors; actives 0.16% (n = 390,000); AID 504648
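A549 ARE-Fluc cells in 5% FBS OPTI-MEM, 5000 cells/well, rested 2 h then exposed to compounds in concentration-response for 18-24 h at 37 °C. Viability by CellTiter-Fluor fluorescence (Ex 405/Em 525) after 30 min; luciferase luminescence (BugLite, 15 min, RT) read afterwards.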
miR-21 reporter = raises the signal of a miR-21 reporter; Potency, µM (doses to about 38.3 µM); HeLa miR-21 FLuc reporter, luciferase, 48 h; AID 2288; 340,000 tested, under 10 active; active = well fitted rising curve with a large enough effect; inconclusive = small, poorly fitted or top-dose-only effect; inactive = no such curve, though single readings can be large or run the other way;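 further: miR-21 action dims this reporter so a rising signal means less miR-21 action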
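HeLa miR-21-FLuc reporter line, endogenous miR-21; 2000 cells/well in DMEM/10% FBS; compound titration up to ~40uM final, 48 h, 37 degree Celsius; luciferase detection reagent, 15 min lysis, CCD luminescence.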
Nrf2 inh = Nrf2 pathway inhibition. A549 ARE-Fluc reporter, luciferase luminescence, 18-24 h. actives 2.1% (n = 360,000). AID 504444. Potency, µM (series often up to 46 µM), actives largely listed as inhibitors; further: nearly all actives have a fitted effect of over 60% in size
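Quantitative HTS in A549 cells stably bearing an antioxidant response element-firefly luciferase construct. Inhibition of Nrf2-driven transcription was scored by luminescence after 18-24 h of compound exposure at 37 °C.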
Hits are given with their value; - = inactive; ? = inconclusive; . = not tested or not shown; ! = not confirmed by another sample. Hits are enriched below; roughly 3.7% of the tested compounds scored in any of these assays. Unless noted, the call rests on the fitted dose curve; in most records, active means well fitted curve in the direction sought with a large enough effect; inconclusive means small, poorly fitted or top-dose-only effect, or another doubt; inactive means no such curve, though single readings can be large; an effect the other way counts as inactive or inconclusive.

SMILES	IL-2 act	Nrf2 ARE act	ClpP mod	A549 viability	miR-21 reporter	Nrf2 inh
CCCCN1CCc2c([nH]c3ccccc23)C1=O	-	-	20µM	-	-	?
CCCC/C=C1\CCc2c([nH]c3ccccc23)C1=O	-	?	.	-	-	?
Cc1cc(C)cc(Nc2ccc(C(=O)O)cc2N)c1	-	-	28µM	-	-	-
Cc1ccc(Nc2ccc(C(=O)O)cc2N)cc1	-	-	-	-	-	-
O=C(C1CCN(S(=O)(=O)N2CCOCC2)CC1)N1CCN(c2ccccc2F)CC1	-	-	-	-	-	-
CCn1c(C(=O)N2CCC(C(=O)N3CCN(c4cccc(C)c4C)CC3)CC2)cc2sccc21	.	-	-	-	-	21µM
Cc1cccc(N2CCN(C(=O)C3CCN(S(=O)(=O)N4CCOCC4)CC3)CC2)c1C	-	-	-	-	-	21µM
COc1ccc(CNC(=O)c2cccc(-n3cnc4cccnc43)c2C)cc1	.	-	-	-	-	-
O=C(Nc1ccc(C(=O)OCc2cc(=O)n3c4c(sc3n2)CCCC4)cc1)c1cccc(F)c1	.	-	-	-	-	.
O=C1C(Cl)=C(N2CCN(c3ccccc3[N+](=O)[O-])CC2)C(=O)c2ccccc21	-	7.9µM	-	-	-	-
CCN(Cc1nc2ccccc2c(=O)[nH]1)C(=O)c1ccc(C)c(NC(=O)c2ccco2)c1	-	-	-	-	.	16µM
CC(=O)Nc1ncc(N=Nc2cccc(C(F)(F)F)c2)s1	-	?	.	12µM	-	-
COC(=O)/C(N=Nc1cccc(C(F)(F)F)c1)=C(\C)O	-	-	-	-	-	-
Cc1ccc(-c2cc3nn(-c4ccccc4)c(N)c3c(=O)o2)cc1	-	-	32µM	-	-	-
S=c1[nH]nc(-c2cc(-c3ccccc3)n[nH]2)n1/N=C/c1ccccc1	-	-	-	-	-	-
S=c1[nH]nc(-c2cc(-c3ccccc3)n[nH]2)n1/N=C/C(Br)=C/c1ccccc1	-	?	-	?	?	23µM
Cc1cccc(/C=N/n2c(-c3cc(-c4ccccc4)n[nH]3)n[nH]c2=S)c1	-	-	25µM	-	-	-
COc1cc(F)c(S(=O)(=O)N2CCN(S(=O)(=O)c3ccc(N)cc3)CC2)c(F)c1	.	.	.	-	.	-
CCCCc1c(C)c(C#N)c2nc3ccccc3n2c1NCCN(C)C	-	-	-	6.5µM	-	6.5µM
Cn1nnnc1Sc1ncnc2scc(-c3cccc(Br)c3)c12	-	-	.	-	.	23µM
Cn1nnnc1Sc1ncnc2scc(-c3ccc([N+](=O)[O-])cc3)c12	-	?	.	?	.	18µM
Cn1nnnc1Sc1ncnc2scc(-c3ccc4c(=O)ccoc4c3)c12	.	.	.	?	.	16µM
Cc1sc2ncnc(Sc3nnnn3-c3ccccc3)c2c1C	-	8.9µM	32µM!	-	?	?
Cn1nnnc1Sc1ncnc2scc(-c3cccc([N+](=O)[O-])c3)c12	.	.	.	-	.	-
Cn1nnnc1Sc1ncnc2scc(-c3cccc(N)c3)c12	.	.	.	-	.	-
SMILES	IL-2 act	Nrf2 ARE act	ClpP mod	A549 viability	miR-21 reporter	Nrf2 inh
CCOC(=O)c1cc(-c2ccccc2)n(CC(=O)Nc2ccc(OC)cc2OC)c1C	.	-	-	-	-	.
Cn1nnnc1Sc1ncnc2scc(-c3ccc(S(C)(=O)=O)cc3)c12	.	.	.	-	.	?
Cn1nnnc1Sc1ncnc2scc(-c3cccc(S(C)(=O)=O)c3)c12	-	-	.	?	.	8.2µM
Cn1nnnc1Sc1ncnc2scc(-c3ccccc3Cl)c12	-	-	.	-	.	26µM
O=C(c1cc(-c2ccc(Br)cc2)n[nH]1)N1CCN(S(=O)(=O)c2ccc(Br)s2)CC1	.	-	-	-	-	-
O=C(NCc1cccc(F)c1)C1CCN(c2nn3cc(-c4ccc(F)cc4)nc3s2)CC1	.	-	-	-	-	?
O=C(O)c1ccc2c3c(ncnc13)-c1ccccc1C2=O	-	-	-	3.3µM	-	2.6µM
COc1ccc(CN(Cc2ccccc2)C(=O)c2ccccc2O)cc1COc1ccc(NC(C)=O)cc1	.	.	.	-	.	-
O=C(CCc1nc2ccccc2c(=O)[nH]1)N1CCN(c2ccc(F)cc2)CC1	-	-	.	-	-	16µM
CC(=O)N1CCN(C(=O)CCc2nc3ccccc3c(=O)[nH]2)CC1	-	-	-	-	-	.
CCCn1c(SCc2nc(-c3ccc(OC)c(OC)c3)no2)nnc1-c1ccccc1	.	-	-	-	-	?
Cc1ccc2c(c1)N(CCC(=O)NC(C)C)C(=O)CO2	-	-	28µM	-	-	-
Cc1ccc(CNC(=O)CCN2C(=O)COc3ccc(C)cc32)cc1	.	-	-	-	-	-
CN(C)c1ccc(N=Cc2cccc3ccccc23)cc1	.	.	-	.	.	.
CCOc1ccc(-n2ccnc2SCC(=O)Nc2ccc(OC)cc2OC)cc1	.	-	-	-	-	.
O=C(NN/C(=N/S(=O)(=O)c1ccc(Cl)cc1)c1ccccc1)c1cccc(Cl)c1	-	4.5µM	.	-	-	?
COc1ccc(CN(C)C(=O)c2ccc(OCC(=O)Nc3cccc(C(F)(F)F)c3)c(OC)c2)c(OC)c1	-	-	-	-	.	16µM
COc1cccc(CN(C)C(=O)c2ccc(OCC(=O)Nc3cccc(C(F)(F)F)c3)c(OC)c2)c1	-	-	-	?	.	4.6µM
COc1cc(C(=O)NCCCN(C)C)ccc1OCC(=O)Nc1cccc(C(F)(F)F)c1	-	-	.	-	-	-
Cc1cc2c(s1)c1cnn(Cc3cccc(Cn4ncc5c6sc(C)cc6n(C)c5c4=O)c3F)c(=O)c1n2C	.	.	.	-	.	-
CCOC(=O)c1c(-c2ccc(C)o2)csc1NC(=S)NC(=O)c1cccs1	-	-	-	-	-	-
CCOC(=O)c1c(-c2ccc(C)o2)csc1NC(=O)COC(=O)c1ccc(NC(N)=O)cc1	-	-	-	-	-	16µM
CCCCC(=O)Nc1ccc(C(=O)Nc2ccc(OC)cc2[N+](=O)[O-])cc1	?	-	-	?	-	21µM
CCCCC(=O)Nc1ccc(NC(=O)c2ccc([N+](=O)[O-])cc2)cc1OC	-	-	-	-	-	-
COc1ccc(NC(=O)c2cc(Cl)ccc2Cl)c([N+](=O)[O-])c1	-	-	28µM	-	-	-
COc1ccc(S(=O)(=O)N(CC(=O)Nc2cc(Cl)ccc2C)Cc2ccccc2)cc1OC	.	-	-	-	?	?
CCOC(=O)c1[nH]c2cc3c(cc2c1NC(=O)CN1CCCC1)OCO3	-	-	-	-	-	-
CCOC(=O)c1[nH]c2cc3c(cc2c1NC(=O)CN1CCC(C)CC1)OCO3	-	-	11µM	-	-	?
CCOC(=O)c1[nH]c2cc3c(cc2c1NC(=O)CN1CCc2ccccc2C1)OCO3	-	-	3.2µM	?	-	?
Cc1ccc(C(=O)c2c(N)c(C(=O)Nc3ccccc3Cl)c3ccccn23)cc1	.	-	-	-	-	-

Assay outcomes deposited in PubChem BioAssay by National Center for Advancing Translational Sciences (NCATS).
